Values of other authors, collected in US8642784B2, “Biologically active compound N-[3-(4-nitrophenylamino)-indole-2-ilmethylene]aminoguanidine hydrochloride with anti-inflammatory activity” (priority 2010, dated 2014).

Biological target: inducible isoenzymes of NO-synthase (Homo sapiens, UniProt P35228)
Conditions: most in vitro systems; cited from earlier work

CNC(=N)NCCC[C@H](N)C(=O)O [L-NMMA, NG-monomethyl-L-arginine]
Inhibition of inducible isoenzymes of NO-synthase: equally effective in inhibiting inducible isoenzymes
